{"sequences": {"note": "Chains of the proteins cited; added tags and fusions are not shown. Lines headed by an entry give the natural chain unless they say otherwise; changes in a name come on top.", "UniProt Q86Y07": "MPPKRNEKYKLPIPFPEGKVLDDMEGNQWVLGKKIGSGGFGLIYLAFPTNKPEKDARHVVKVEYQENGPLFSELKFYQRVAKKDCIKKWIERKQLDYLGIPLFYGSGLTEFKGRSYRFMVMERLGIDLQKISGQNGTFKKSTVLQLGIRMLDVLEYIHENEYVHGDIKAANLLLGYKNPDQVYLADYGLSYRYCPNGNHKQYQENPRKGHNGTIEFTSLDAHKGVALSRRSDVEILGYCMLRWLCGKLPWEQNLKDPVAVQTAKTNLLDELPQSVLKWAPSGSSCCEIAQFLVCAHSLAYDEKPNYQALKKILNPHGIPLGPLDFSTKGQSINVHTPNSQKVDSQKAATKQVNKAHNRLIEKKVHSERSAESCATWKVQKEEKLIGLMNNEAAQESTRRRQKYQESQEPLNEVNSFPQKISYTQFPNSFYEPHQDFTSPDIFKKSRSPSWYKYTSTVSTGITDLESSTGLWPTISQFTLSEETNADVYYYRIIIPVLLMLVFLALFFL", "UniProt Q9H422": "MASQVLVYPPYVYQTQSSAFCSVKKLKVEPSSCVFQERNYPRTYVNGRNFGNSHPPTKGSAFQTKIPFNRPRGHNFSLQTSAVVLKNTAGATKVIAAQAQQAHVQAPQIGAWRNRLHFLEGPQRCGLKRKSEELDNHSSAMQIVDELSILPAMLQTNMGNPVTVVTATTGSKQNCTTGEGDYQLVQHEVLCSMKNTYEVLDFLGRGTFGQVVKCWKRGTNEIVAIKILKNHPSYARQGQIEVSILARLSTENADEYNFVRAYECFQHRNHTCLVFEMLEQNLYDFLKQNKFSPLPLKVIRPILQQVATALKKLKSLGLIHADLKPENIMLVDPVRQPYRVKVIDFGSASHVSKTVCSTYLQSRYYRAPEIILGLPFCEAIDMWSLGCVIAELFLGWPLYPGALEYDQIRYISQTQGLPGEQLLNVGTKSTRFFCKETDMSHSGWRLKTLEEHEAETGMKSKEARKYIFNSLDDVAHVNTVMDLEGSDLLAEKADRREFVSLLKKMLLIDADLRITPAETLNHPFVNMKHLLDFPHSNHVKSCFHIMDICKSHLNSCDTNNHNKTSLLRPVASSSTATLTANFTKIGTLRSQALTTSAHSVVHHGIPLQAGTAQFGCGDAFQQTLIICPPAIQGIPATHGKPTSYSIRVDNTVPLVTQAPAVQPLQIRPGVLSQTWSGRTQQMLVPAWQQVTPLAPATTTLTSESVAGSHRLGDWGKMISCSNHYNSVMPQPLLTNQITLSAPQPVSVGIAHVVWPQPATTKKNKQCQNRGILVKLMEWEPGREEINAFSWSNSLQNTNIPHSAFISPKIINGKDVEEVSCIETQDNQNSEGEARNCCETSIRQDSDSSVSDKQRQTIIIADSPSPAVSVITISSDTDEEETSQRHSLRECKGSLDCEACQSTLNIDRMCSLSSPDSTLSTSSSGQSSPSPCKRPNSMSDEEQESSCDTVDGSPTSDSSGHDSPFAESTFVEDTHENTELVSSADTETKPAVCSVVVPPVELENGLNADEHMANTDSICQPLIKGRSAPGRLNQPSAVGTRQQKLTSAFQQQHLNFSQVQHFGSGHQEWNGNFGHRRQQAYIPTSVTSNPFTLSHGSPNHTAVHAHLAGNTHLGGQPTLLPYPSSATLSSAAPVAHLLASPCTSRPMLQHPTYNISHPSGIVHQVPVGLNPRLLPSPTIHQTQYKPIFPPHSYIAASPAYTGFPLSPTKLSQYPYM", "UniProt P78368": "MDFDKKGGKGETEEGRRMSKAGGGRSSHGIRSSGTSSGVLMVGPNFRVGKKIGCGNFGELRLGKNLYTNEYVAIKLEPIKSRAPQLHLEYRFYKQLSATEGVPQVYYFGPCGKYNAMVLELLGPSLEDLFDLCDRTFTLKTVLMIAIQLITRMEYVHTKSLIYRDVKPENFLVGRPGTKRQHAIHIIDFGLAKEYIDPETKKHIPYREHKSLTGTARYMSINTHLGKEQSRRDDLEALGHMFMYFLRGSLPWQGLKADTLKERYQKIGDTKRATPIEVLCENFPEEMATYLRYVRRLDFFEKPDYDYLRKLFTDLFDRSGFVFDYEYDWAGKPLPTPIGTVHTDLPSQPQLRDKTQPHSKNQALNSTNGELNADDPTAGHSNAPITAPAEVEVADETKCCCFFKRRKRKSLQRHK", "UniProt P53667": "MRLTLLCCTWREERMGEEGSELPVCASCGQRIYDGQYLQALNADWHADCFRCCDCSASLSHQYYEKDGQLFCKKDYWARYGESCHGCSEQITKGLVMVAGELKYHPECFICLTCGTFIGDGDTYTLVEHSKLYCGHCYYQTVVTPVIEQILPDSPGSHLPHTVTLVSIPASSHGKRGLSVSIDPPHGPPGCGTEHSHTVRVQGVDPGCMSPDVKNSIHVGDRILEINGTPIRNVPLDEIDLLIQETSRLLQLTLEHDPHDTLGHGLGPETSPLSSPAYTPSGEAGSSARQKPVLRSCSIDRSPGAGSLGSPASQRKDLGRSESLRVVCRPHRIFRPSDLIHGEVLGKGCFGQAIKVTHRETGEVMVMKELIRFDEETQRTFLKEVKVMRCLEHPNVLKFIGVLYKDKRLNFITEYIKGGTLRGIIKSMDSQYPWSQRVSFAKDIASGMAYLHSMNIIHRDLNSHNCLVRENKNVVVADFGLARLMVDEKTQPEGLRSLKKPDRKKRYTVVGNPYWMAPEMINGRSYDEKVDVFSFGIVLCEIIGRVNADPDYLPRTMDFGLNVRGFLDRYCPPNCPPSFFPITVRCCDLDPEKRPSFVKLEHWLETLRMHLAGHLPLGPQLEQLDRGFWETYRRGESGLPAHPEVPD", "UniProt Q9H2X6": "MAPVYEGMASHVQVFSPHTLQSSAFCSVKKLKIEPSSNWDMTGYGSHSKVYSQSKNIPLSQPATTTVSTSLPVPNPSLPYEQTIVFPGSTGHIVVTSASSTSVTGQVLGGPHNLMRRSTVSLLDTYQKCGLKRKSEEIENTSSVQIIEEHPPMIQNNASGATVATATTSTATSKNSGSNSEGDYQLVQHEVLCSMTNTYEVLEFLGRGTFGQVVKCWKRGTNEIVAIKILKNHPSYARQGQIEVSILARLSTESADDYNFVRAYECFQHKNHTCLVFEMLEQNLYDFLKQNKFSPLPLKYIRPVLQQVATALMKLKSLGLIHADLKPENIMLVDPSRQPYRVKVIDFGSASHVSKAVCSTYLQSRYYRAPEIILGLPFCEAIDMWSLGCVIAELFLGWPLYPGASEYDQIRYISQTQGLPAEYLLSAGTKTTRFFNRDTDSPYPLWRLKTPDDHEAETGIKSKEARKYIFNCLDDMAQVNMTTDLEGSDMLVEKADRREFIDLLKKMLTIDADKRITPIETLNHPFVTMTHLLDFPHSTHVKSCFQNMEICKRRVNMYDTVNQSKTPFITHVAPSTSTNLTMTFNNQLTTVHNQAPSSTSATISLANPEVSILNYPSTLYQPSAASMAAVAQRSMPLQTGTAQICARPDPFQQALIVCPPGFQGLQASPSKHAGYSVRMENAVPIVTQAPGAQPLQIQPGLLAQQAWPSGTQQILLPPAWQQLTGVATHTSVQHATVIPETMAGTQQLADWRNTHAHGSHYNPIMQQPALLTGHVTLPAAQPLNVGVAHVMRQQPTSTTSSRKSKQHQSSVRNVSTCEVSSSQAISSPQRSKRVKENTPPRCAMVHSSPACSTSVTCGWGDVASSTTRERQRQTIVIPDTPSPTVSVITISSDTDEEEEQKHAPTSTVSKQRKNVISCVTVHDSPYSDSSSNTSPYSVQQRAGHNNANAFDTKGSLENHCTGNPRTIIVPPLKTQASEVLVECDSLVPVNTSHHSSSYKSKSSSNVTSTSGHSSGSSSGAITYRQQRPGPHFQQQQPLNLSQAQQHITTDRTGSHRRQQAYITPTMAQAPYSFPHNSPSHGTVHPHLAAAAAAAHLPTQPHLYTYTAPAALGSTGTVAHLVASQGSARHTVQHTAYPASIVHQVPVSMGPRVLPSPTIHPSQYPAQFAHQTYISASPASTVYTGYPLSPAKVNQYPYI", "UniProt P49840": "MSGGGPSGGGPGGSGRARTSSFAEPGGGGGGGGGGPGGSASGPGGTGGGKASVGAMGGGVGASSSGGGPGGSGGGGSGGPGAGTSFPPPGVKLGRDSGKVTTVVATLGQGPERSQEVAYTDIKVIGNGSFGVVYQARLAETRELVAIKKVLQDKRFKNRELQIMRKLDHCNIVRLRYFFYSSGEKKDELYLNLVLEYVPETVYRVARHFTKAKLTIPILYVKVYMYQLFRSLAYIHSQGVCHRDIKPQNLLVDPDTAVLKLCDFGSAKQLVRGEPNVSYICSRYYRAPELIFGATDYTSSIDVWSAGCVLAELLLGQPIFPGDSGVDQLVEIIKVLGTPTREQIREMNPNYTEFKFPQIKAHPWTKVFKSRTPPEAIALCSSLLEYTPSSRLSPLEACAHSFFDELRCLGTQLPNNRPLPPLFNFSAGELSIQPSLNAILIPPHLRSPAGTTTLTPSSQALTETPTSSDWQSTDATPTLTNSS", "UniProt Q9NYY3": "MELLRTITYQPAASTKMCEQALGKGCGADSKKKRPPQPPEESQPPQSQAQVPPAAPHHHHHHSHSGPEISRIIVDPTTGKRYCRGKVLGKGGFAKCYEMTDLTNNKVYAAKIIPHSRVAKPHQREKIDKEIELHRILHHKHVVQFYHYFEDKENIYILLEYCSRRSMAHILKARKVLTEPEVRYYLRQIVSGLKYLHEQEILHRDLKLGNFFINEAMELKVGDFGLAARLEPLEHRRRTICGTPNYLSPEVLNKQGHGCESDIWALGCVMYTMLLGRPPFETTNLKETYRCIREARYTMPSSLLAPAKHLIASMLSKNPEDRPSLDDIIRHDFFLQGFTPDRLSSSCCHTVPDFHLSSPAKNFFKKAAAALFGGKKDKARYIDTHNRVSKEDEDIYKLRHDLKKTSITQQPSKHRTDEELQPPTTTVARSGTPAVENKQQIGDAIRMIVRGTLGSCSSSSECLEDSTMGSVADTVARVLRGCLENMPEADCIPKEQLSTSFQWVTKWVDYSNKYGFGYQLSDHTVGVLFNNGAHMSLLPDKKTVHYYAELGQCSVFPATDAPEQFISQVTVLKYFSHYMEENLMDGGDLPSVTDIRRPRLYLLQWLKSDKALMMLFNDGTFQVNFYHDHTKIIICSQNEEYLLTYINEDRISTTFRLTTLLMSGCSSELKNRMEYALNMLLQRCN", "UniProt Q9Y243": "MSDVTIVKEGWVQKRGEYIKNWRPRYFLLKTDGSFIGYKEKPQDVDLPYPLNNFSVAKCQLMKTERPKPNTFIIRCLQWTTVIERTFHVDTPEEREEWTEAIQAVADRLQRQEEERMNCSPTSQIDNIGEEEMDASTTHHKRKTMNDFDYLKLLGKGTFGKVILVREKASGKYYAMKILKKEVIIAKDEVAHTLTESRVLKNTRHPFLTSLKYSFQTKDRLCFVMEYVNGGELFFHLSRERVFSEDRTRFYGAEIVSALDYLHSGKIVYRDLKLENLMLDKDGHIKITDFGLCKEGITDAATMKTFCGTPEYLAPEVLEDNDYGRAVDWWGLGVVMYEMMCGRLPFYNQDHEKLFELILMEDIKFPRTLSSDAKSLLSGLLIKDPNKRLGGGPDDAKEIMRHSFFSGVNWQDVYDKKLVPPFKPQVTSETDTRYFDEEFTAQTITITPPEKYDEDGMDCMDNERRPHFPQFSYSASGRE"}, "source": "patent US10562947B2", "about": "“Compositions and methods for preventing or treating diseases, conditions or processes characterized by aberrant fibroblast proliferation and extracellular matrix deposition” (MOERAE MATRIX, INC., priority 2011, dated 2020)", "assay_in_all_cases": "Kinase Profiling Assay", "format_in_all_cases": "biochemical", "conditions_in_all_cases": "100 μM peptide", "key": {"[1]": {"target": "VRK2(h) (Homo sapiens, UniProt Q86Y07)", "procedure,_shortened": "(§1)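 In duplicate, the activities of 266 available human kinases were determined with MK2 inhibitory peptides present, as a measure of peptide selectivity.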"}, "[2]": {"target": "T1, HIPK3(h) (Homo sapiens, UniProt Q9H422)", "T1 construct": "purchased Millipore", "procedure,_shortened": "as §1"}, "[3]": {"target": "T2, PrKX(h) (Homo sapiens, UniProt P51817)", "T2 construct": "purchased Millipore (IC50 Profiler Express service)", "T2 sequence (P51817 1-358)": "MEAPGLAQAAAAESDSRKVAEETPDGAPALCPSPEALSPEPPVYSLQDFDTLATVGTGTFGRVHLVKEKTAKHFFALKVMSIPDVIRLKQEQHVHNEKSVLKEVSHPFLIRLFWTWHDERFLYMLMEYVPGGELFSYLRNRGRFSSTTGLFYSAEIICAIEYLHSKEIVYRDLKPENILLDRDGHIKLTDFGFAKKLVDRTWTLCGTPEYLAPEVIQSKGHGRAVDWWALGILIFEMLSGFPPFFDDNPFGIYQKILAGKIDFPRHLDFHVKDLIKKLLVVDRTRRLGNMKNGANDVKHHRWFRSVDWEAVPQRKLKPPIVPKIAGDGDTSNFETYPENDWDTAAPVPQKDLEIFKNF", "procedure,_shortened": "as §1"}, "[4]": {"target": "T3, MKK7β(h) (Homo sapiens, UniProt O14733)", "T3 sequence (O14733 1-419)": "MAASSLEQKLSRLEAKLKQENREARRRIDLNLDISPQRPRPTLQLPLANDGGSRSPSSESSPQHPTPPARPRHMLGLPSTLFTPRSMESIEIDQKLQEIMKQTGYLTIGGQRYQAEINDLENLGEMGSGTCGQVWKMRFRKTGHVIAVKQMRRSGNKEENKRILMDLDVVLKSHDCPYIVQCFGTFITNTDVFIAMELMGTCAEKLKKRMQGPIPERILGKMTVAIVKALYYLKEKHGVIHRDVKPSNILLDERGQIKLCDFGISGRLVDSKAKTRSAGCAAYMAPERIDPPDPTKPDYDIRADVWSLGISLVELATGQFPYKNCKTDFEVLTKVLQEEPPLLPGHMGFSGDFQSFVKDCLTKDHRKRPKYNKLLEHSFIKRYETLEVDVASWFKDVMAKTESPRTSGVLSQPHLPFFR", "procedure,_shortened": "as §1"}, "[5]": {"target": "CK1γ2(h) (Homo sapiens, UniProt P78368)", "procedure,_shortened": "as §1"}, "[6]": {"target": "T4, TAO1(h) (Homo sapiens, UniProt Q7L7X3)", "T4 sequence (Q7L7X3 1-1001)": "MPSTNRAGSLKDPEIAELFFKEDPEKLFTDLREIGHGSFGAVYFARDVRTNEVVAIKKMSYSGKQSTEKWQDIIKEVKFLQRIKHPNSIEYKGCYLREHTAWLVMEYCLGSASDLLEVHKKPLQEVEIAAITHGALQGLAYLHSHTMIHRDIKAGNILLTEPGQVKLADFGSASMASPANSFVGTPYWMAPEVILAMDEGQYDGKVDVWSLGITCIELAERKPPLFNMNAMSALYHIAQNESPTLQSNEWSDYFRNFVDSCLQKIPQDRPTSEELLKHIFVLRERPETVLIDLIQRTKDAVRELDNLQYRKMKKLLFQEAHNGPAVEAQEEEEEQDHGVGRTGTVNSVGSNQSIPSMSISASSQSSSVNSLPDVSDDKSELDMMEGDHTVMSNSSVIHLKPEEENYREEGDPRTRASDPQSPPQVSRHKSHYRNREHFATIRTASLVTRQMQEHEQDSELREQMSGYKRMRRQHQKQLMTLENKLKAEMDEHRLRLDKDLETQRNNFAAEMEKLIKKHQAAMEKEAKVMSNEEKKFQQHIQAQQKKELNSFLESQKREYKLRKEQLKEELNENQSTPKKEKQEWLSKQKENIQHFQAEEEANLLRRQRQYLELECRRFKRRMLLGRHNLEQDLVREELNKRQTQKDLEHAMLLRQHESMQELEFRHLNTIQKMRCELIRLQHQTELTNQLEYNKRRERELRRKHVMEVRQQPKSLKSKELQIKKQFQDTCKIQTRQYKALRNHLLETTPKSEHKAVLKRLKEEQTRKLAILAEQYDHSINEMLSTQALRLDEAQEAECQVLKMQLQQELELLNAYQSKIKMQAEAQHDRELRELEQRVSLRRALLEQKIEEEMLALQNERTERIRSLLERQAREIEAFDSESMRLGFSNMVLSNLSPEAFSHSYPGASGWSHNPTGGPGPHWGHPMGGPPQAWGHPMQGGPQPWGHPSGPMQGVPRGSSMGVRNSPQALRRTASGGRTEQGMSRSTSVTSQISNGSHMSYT", "procedure,_shortened": "as §1"}, "[7]": {"target": "LIMK1(h) (Homo sapiens, UniProt P53667)", "procedure,_shortened": "as §1"}, "[8]": {"target": "MRCKβ(h) (Homo sapiens, UniProt Q9Y5S2)", "procedure,_shortened": "as §1"}, "[9]": {"target": "T5, HIPK2(h) (Homo sapiens, UniProt Q9H2X6)", "T5 construct": "purchased Millipore", "procedure,_shortened": "as §1"}, "[10]": {"target": "T6, GSK3α(h) (Homo sapiens, UniProt P49840)", "T6 construct": "purchased Millipore", "procedure,_shortened": "as §1"}, "[11]": {"target": "Snk(h) (Homo sapiens, UniProt Q9NYY3)", "procedure,_shortened": "as §1"}, "[12]": {"target": "PKBγ(h) (Homo sapiens, UniProt Q9Y243)", "procedure,_shortened": "as §1"}}, "data": [{"sequence": "YARAAARQARAKALNRQLGVA (Mammalian) [MMI-0200]", "values": [{"measurement": "VRK2(h) % activity", "setting": "[1]", "value": 109, "unit": "%"}, {"measurement": "HIPK3(h) % activity", "setting": "[2]", "value": 105, "unit": "%"}, {"measurement": "PrKX(h) % activity", "setting": "[3]", "value": 112, "unit": "%"}, {"measurement": "MKK7β(h) % activity", "setting": "[4]", "value": 117, "unit": "%"}, {"measurement": "CK1γ2(h) % activity", "setting": "[5]", "value": 104, "unit": "%"}, {"measurement": "TAO1(h) % activity", "setting": "[6]", "value": 105, "unit": "%"}, {"measurement": "LIMK1(h) % activity", "setting": "[7]", "value": 109, "unit": "%"}, {"measurement": "MRCKβ(h) % activity", "setting": "[8]", "value": 102, "unit": "%"}, {"measurement": "HIPK2(h) % activity", "setting": "[9]", "value": 102, "unit": "%"}, {"measurement": "GSK3α(h) % activity", "setting": "[10]", "value": 119, "unit": "%"}, {"measurement": "Snk(h) % activity", "setting": "[11]", "value": 109, "unit": "%"}, {"measurement": "PKBγ(h) % activity", "setting": "[12]", "value": 103, "unit": "%"}]}]}
